These results are taken from patent publication US20120283274A1, “CRYSTALLINE FORMS OF SUBSTITUTED PYRAZOLOPYRIMIDINES” (priority 2009, published 2012).

Series [1] is described as follows: DVS (dynamic vapour sorption), hygroscopicity. To be noted: with hysteresis. It counts as physicochemical. How it is done:
DVS (50%->0%->95%->50% r.h.) was performed on the samples as mentioned above. The results are summarized in the following:
Surface Measurement Systems Ltd. DVS-1 water vapour sorption analyzer and Projekt Messtechnik SPS 11-100n multi-sample water vapor sorption analyzer were used.
The sample was allowed to equilibrate at 50% relative humidity (r.h.) before starting e.g. the following predefined humidity program: • 2 h at 0% r.h. • 0 to 95% r.h. (5%/h) • 3 h at 95% r.h. • 95 to 0% (10%/h) • 2 h at 0% r.h.

The nature of series [2]: Determination of aqueous solubility (HPLC). The conditions noted are these: 23° C.; for pH of the filtrate: filtrate of the aqueous suspension after 24 hours; for Solubility: suspended in water, 24 hours, concentration of the free base by HPLC.
The conditions of series [3]: pH 8.5.

Like-named read-outs stand apart in the source and are kept apart here.

For orientation: Solubility means how much of the substance goes into solution per volume. Low readings indicate little dissolved substance, high ones much dissolved substance. As to `C[C@@H]1c2ccccc2CCN1C(=O)c1cc2ncc(Br)cn2n1.O=C(O)c1ccc2ccccc2c1O` [Example 4c, co-crystal of (6-bromo-pyrazolo[1,5-a]pyrimidin-2-yl)-(1(R)-methyl-3,4-dihydro-1H-isoquinolin-2-yl)-methanone and xinafoic acid], the “relative humidity above which reversible water uptake occurs” value in series [1] was “above 80 % r.h”. In series [2], the “pH of the filtrate” value amounted to 5.2 and the Solubility was 40 µg/mL. Also, the “solid form after solubility test (FT-Raman compared with the spectrum before)” value in series [2] (solid after 24 hours in water) is “no change in form”.

As to `C[C@@H]1c2ccccc2CCN1C(=O)c1cc2ncc(Br)cn2n1` [Free drug compound, (6-bromo-pyrazolo[1,5-a]pyrimidin-2-yl)-(1(R)-methyl-3,4-dihydro-1H-isoquinolin-2-yl)-methanone], in series [2], the “pH of the filtrate” value is given as 8.5 and the Solubility result was “below 0.01 mg/ml”.

The compound `C[C@@H]1c2ccccc2CCN1C(=O)c1cc2ncc(Br)cn2n1.O=C(O)c1cc(O)ccc1O` [Example 3c, co-crystal of (6-bromo-pyrazolo[1,5-a]pyrimidin-2-yl)-(1(R)-methyl-3,4-dihydro-1H-isoquinolin-2-yl)-methanone and gentisic acid] returned a Solubility in series [3] of 30 µg/mL. In series [2], the “pH of the filtrate” value is 3.0.
